Laboratory results as given in BindingDB's records for PubMed 7903385 (Creighton University, 1993).

Amino acid sequences for entries named in this document (tags omitted). Residues count along the entry.
UniProt P18871, 16-465: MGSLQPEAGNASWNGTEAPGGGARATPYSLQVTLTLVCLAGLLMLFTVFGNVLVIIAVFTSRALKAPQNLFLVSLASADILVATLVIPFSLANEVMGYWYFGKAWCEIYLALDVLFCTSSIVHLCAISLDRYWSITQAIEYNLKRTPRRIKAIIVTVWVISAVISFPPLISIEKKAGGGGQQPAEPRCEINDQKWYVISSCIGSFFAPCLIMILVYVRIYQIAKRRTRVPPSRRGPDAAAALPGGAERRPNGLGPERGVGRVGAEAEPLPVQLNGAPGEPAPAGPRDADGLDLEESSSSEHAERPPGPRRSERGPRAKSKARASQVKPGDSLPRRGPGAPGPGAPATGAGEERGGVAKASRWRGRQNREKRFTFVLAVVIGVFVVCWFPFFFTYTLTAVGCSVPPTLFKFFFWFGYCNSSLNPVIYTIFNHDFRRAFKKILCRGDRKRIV

Target: Alpha-2A adrenergic receptor (Sus scrofa, UniProt P18871)

Ki: 0.26 nM
Compound: COC(=O)[C@@H]1[C@H]2C[C@H]3c4[nH]c5ccccc5c4CCN3C[C@@H]2CC[C@@H]1O [yohimbic acid methyl ester]
